Results taken from patent publication US8293782B2, “Compound, probe containing the novel compound, and fluorescence-imaging contrast agent containing the novel compound or the probe” (Canon Kabushiki Kaisha, priority 2009, dated 2012).

Legend:
[1] = Fading evaluation in fetal bovine serum under interior light (680 LUX); type: physicochemical; details: 5 μM in FBS, absorbance at maximum absorption wavelength after 24 hours
Procedure: The ordinate of FIG. 10 indicates log(At/A0) where A0 and At respectively represent absorbance at the maximum absorption wavelength after the lapse of 0 and t hours from the irradiation of the interior light. The fading rate in Table 1 is expressed by (A0-A24)/A0, that is, variation in absorbance at the maximum absorption wavelength after the lapse of 24 hours.

Suit2 tumor cells = experiment: Fluorescence kinetics evaluation in tumor-bearing site, Suit2 tumor-transplanted-model mouse; details: intensity before injection = 1

| Substance | Fading rate (A0-A24)/A0 [1] | Relative fluorescence intensity at tumor-bearing site (Suit2 tumor cells; 15 minutes after administration) | Relative fluorescence intensity at tumor-bearing site (Suit2 tumor cells; 1 hour after administration) | Relative fluorescence intensity at tumor-bearing site (Suit2 tumor cells; 3 hours after administration) | Relative fluorescence intensity at tumor-bearing site (Suit2 tumor cells; 5 hours after administration) | Relative fluorescence intensity at tumor-bearing site (Suit2 tumor cells; 1 day after administration) | Relative fluorescence intensity at tumor-bearing site (Suit2 tumor cells; 2 days after administration) | Relative fluorescence intensity at tumor-bearing site (Suit2 tumor cells; 3 days after administration) |
| --- | --- | --- | --- | --- | --- | --- | --- | --- |
| Alexa Fluor (trademark) 790 [Reagent 2] | 3.4% |  |  |  |  |  |  |  |
| Alexa Fluor (trademark) 750 [Reagent 1] |  | 34.1 | 26.2 | 26.3 | 24.5 | 22.4 | 18.1 | 13.7 |
